Molecular target: T1, Porcine pancreatic α-amylase (Sus scrofa, UniProt P00690)
T1 sequence (P00690 16-511): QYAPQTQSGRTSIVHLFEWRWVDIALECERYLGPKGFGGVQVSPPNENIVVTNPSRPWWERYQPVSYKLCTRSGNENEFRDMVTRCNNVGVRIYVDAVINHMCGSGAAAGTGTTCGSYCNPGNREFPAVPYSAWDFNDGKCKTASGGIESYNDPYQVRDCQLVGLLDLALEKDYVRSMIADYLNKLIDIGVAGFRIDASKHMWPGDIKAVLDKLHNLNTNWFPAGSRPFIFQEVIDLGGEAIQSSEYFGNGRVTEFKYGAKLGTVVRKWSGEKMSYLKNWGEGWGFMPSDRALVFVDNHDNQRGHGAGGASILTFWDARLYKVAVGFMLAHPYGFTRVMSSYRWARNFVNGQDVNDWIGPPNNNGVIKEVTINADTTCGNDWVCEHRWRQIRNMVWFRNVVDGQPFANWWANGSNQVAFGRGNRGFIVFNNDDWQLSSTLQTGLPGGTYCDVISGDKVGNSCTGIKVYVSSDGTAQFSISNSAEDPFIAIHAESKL
Test: Kinetic parameters of α-amylase inhibition (Lineweaver–Burk, Michaelis–Menten)
Details: for Type Inhibition, α-amylase: Lineweaver–Burk plot; for Vmax: α-amylase

Question: Which results are given for `C[C@H]1O[C@H](O[C@H]2[C@H](O)[C@@H](O)[C@@H](O[C@H]3[C@H](O)[C@@H](O)C(O)O[C@@H]3CO)O[C@@H]2CO)[C@H](O)[C@@H](O)[C@@H]1N[C@H]1C=C(CO)[C@@H](O)[C@H](O)[C@H]1O` (some centres unmarked) [AR, acarbose]?
Answer: Type Inhibition, α-amylase: Mixed; Type Inhibition, α-amylase (listed as acarbose): mixed type of inhibition; Vmax (inhibitor 3.0 µg/mL): 0.321 ± 0.009 ^C mM/min; Vmax (inhibitor 8.0 µg/mL): 0.241 ± 0.015 ^B mM/min; Vmax (inhibitor 10.0 µg/mL): 0.189 ± 0.009 ^A mM/min

Source: article PMC9610465, “The Inhibition of α-Glucosidase, α-Amylase and Protein Glycation by Phenolic Extracts of Cotoneaster bullatus, Cotoneaster zabelii, and Cotoneaster integerrimus Leaves and Fruits: Focus on Anti-Hyperglycemic Activity and Kinetic Parameters” (Molecules, 2022)
